From ChEMBL document CHEMBL1154744, “HIV-1 protease inhibitors with a transition-state mimic comprising a tertiary alcohol: improved antiviral activity in cells” (J Med Chem, 2010)

Biological target: Protease (Human immunodeficiency virus 1, UniProt Q9YQ12)
Assay: Inhibition of HIV1 protease expressed in Escherichia coli by fluorometric assay

Ki [nM] | SMILES
0.2 | CC(C)(C)NC(=O)[C@@H]1C[C@@H]2CCCC[C@@H]2CN1C[C@@H](O)[C@H](Cc1ccccc1)NC(=O)[C@H](CC(N)=O)NC(=O)c1ccc2ccccc2n1
0.3 | CC(C)(C)NC(=O)[C@@H]1CN(Cc2cccnc2)CCN1C[C@@H](O)C[C@@H](Cc1ccccc1)C(=O)N[C@H]1c2ccccc2C[C@H]1O
1.4 | Cc1cccc(C)c1OCC(=O)N[C@@H](Cc1ccccc1)[C@@H](O)C[C@H](Cc1ccccc1)NC(=O)[C@H](C(C)C)N1CCCNC1=O [LOPINAVIR]

SMILES | Ki [nM]
COC(=O)N[C@H](C(=O)NN(CC[C@@](O)(Cc1ccccc1)C(=O)N[C@H]1c2ccccc2C[C@H]1O)Cc1ccc(-c2ccccn2)cc1)C(C)(C)C | 1.7
